Test results as given in US5283180A, “Bioluminescence method for the determination of pesticides” (priority 1992, dated 1994).
Where two headings read alike, the source gives them in different places.

Tested on: Bee Brain Activity for Ac-luciferin (esterase activity of bee brain extract)
Format: biochemical, honey bees
Procedure: 1. Sample is preincubated with a predetermined quantity (dilution 1:200) of brain preparation for 5 minutes.
2. Luciferin acetate (200 pmoles) is added to the incubation mixture for additional 5 minutes.
3. A portion of this […] mixture (100 μl) is withdrawn and added to the luciferase and ATP reaction mixture (1 ml).
4. Bioluminescence reading for 2-5 seconds is monitored.
5. The reading of the pesticide sample is compared to the control sample to quantitate the percent inhibition of the sample (see Tables 3, 4, 5 and 6) .
Insects are stored from at -20° C. or below. Insect heads are collected by dissection with a scalpel and placed in a 50 ml beaker containing approximately 15 ml ice cold 0.07M phosphate buffer, pH 7.0, containing 1 mM EDTA (ethylenediaminetetra acetic acid) and 1 μM phenylthiourea. The insect heads are gently homogenized at low speed in a Tekmar Tissumizer. Aliquots of this crude extract are transferred to microcentrifuge tubes and centrifuged. […] Fractions are collected every 2 minutes and monitored for esterase activity using luciferin acetate as a substrate and measuring bioluminescence. […]
6. […] In the positive samples the esterolitic activity of the bee extract will be inhibited and less luciferin will form giving a low bioluminescent reading. Divide sample reading or positive control by zero control and multiply to 100 to get percent inhibition.

| SMILES | % activity (50 ppb pesticide) [%] | % activity (5.0 ppb pesticide) [%] |
| --- | --- | --- |
| CCOP(=S)(OCC)Oc1cc(C)nc(C(C)C)n1 [Diazinon] | 45 |  |
| COP(=S)(OC)Oc1ccc([N+](=O)[O-])cc1 [Methyl parathion] |  | 15 |
